{
  "source": "paper PMC3187562",
  "about": "(ACS medicinal chemistry letters, 2011)",
  "origin": "cited, not measured here",
  "tested_on": "HDAC7",
  "data": [
    {"smiles": "O=C(CCCCCCC(=O)Nc1ccccc1)NO", "note": "[compound 2, vorinostat]", "values": [
      {"measurement": "expression of HDAC7 in treated cells", "result": "selectively down-regulated"}
    ]}
  ]
}
